Laboratory results taken from US12419870B2, “Compositions and methods for immune cell modulation in adoptive immunotherapies” (Fate Therapeutics, Inc., priority 2016, dated 2025).

Columns and labels:
viable CD4+ population = test: In vitro T cell culture compound screen, flow cytometry for cells co-expressing CCR7 and CD62L in CD4+ cells; format: cell-based, human; conditions: 10 μM, about 6 days
Source text: (§1) In Vitro T Cell Culture. Fresh leukopaks (AllCells, Alameda, CA) were obtained from healthy donors, from which T cells were negatively selected using the EasySep Human T Cell Enrichment Kit (Stem Cell Technologies, Vancouver, Canada). The freshly isolated T cells were aliquoted and cryopreserved. On the day the screens were initiated, T cells were thawed and washed into X-Vivo 15 with 5% human AB serum, IL-2, pen/strep, and additional supplements. Cells were dispensed into flat-bottom 384-well plates at 5×10^5 cells/ml with anti-CD3/Anti-CD28 dynabeads (ThermoFisher, Waltham, MA) at a 3:1 bead-to-cell ratio. […]
(§2) Flow Cytometry. […] Data acquisition was performed on a BD Fortessa X-20 (BD Biosciences) and data were analyzed using Treestar software (FlowJo, Ashland, OR) and Spotfire (Tibco, Boston, MA).
(§3) These cells are characterized by expression of CCR7 and CD62L. Therefore, cells co-expressing both of these identifying markers were evaluated. Within the viable CD4+ population and viable CD8+ population, the percent of cells co-expressing CCR7 and CD62L was determined. […]
(§4) The number of events in each of these gates relative to the number of absolute counting beads in each sample was calculated, defining a relative measure of the absolute number of naïve, stem cell memory, or central memory T cells within the CD4+ and/or CD8+ populations. […]

viable CD8+ population = test: In vitro T cell culture compound screen, flow cytometry for cells co-expressing CCR7 and CD62L in CD8+ cells; format: cell-based, human; conditions: 10 μM, about 6 days
Source text: as §1, §2, §3, §4

Nalm-6-luc = test: In vivo tumor clearance by compound-treated CAR-T cells in tumor-bearing NSG mice
Experimental: CAR-T cells were generated from CD4+ and CD8+ T cells that were separately activated and expanded in vitro. The cells were transduced with the CAR-2 construct (FIG. 2) one day after activation and then replated into 24-well GREX plates with or without the compounds. Half the media was replaced every two days thereafter until harvest one week post-activation. One week after tumor injection, the NSG mice were treated with 0.2×10^6 CD4 and CD8 CAR-T cells mixed at a 1:1 ratio via retroorbital injection. The mice were imaged periodically to determine tumor burden.

Structure (SMILES): Oc1cccc(-c2nc(N3CCOCC3)c3oc4ncccc4c3n2)c1 [PI-103]
- number or ratio of cells co-expressing CCR7 and CD62L (viable CD4+ population): increased
- number or ratio of cells co-expressing CCR7 and CD62L (viable CD8+ population): increased
- tumor clearance / tumor control by treated CAR-T cells (Nalm-6-luc; 0.2×10^6 CD4 and CD8 CAR-T cells 1:1, retroorbital, one week after tumor injection): able to clear tumor from the majority of mice
- mice that survived primary tumor challenge until the start of the rechallenge study (Nalm-6-luc; 60 days after the primary tumor injection): survived
